Results published in patent publication US20050009748A1, “Compositions for delivering peptide YY and PYY agonists” (Emisphere Technologies, Inc., priority 2003, published 2005).

Assay: Solid oral delivery of PYY[3-36] in feed restricted rats (serum PYY radioimmunoassay)
Type: in vivo, Male Sprague Dawley rats
Settings: 1 tablet per animal, Delivery Agent 50 mg/kg, PYY[3-36] 0.3 mg/kg
Experimental: An oral dosing tube was used.
Blood samples were collected serially from the tail artery, by cardiac puncture, or as in this case by retro-orbitally, typically at time=0, 15, 30, 60 and 90 minutes.

O=C(O)CCCCCCCNC(=O)c1ccccc1O [Delivery Agent 1, N-(8-[2-hydroxybenzoyl]-amino)caprylic acid]
Mean serum peak of PYY (pg/ml) ± SD: 511.5 ± 493.5 pg/mL
